Apparent affinities of Ab-14 variants for a coronavirus HR2 peptide

Reference: Engelhart et al. 2022, doi:10.1038/s41597-022-01779-4. File: FLAb, binding data.

All variants were tested on one target, the spike HR2 peptide PDVDLGDISGINAS (SARS-CoV-2).

Parent scFv Ab-14: VH joined to VL by a 15-residue (Gly4Ser)3 linker. Changes lie in the heavy chain CDRs alone.
VH: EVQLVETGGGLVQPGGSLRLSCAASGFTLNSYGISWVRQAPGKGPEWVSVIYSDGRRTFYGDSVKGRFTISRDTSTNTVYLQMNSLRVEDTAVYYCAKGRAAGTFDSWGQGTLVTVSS
VL: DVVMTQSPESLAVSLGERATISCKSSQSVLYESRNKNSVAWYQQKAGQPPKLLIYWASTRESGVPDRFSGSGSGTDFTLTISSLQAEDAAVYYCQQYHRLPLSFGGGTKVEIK

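AAYL49 was designed without a model: most single CDR substitutions and a random sample of double and triple ones. The assay is AlphaSeq: two haploid yeast populations carry antibody and antigen on their surface. After mating in shaken culture at 30 °C for 16 h, diploids were selected and their barcode pairs sequenced. Scores were corrected for input abundance and mapped to Kd with protein pairs of known affinity run in the same pool. Mating was done three times.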

Changes read parent residue, position, new residue, counted from the first residue of the VH shown.
Values are log10 of the apparent Kd in nM; lower means stronger binding.
Where no diploid with the target was found in that replicate, the entry reads "n.d.": below detection, most likely a poor binder, though not proof of it.
Parent in this assay: reference entry 0.65, copy in this library 4.11 (one replicate of three).

changes,"replicates, log10 nM",control signals
D54L F105K,n.d. / n.d. / n.d.,0 of 9
Y32Q F59C A101Q,4.52 / 4.05 / n.d.,6 of 9 (4.41)
V50R I51T R57V,3.72 / n.d. / n.d.,0 of 9
I51D Y52D S53C,n.d. / n.d. / n.d.,0 of 9
S31T I51T G55T,n.d. / n.d. / 4.72,0 of 9
R56A R57S,n.d. / n.d. / n.d.,0 of 9
Y32F R57N D106L,4.61 / 5.56 / 4.02,4 of 9 (4.26)
I51E D62E V64F,n.d. / n.d. / n.d.,0 of 9
I34Q S35N V50N,n.d. / 3.01 / 5.17,0 of 9
G33D I51P K65I,n.d. / n.d. / 4.01,1 of 9 (3.59)
T28A S35I R100H,n.d. / n.d. / n.d.,0 of 9
D54G G61K A101W,n.d. / n.d. / n.d.,1 of 9 (3.71)
R57S D106A S107A,n.d. / n.d. / n.d.,1 of 9 (4.13)
S35Q F59V S63C,4.67 / 4.26 / n.d.,1 of 9 (4.65)
T28R N30T G33C,n.d. / 3.25 / n.d.,1 of 9 (3.01)
T104R F105H,5.65 / 4.57 / n.d.,0 of 9
Y32K S35F G55E,n.d. / n.d. / n.d.,0 of 9
G55V F59N G99N,n.d. / 4.09 / n.d.,1 of 9 (4.42)
V64P G103C T104C,n.d. / 3.81 / n.d.,1 of 9 (3.69)
R57I G61A R100C,4.63 / n.d. / n.d.,1 of 9 (2.34)
S31Q S53L,n.d. / 3.46 / n.d.,0 of 9
F27W S53N,5.25 / n.d. / n.d.,2 of 9 (3.78)
G55F Y60A F105G,n.d. / n.d. / n.d.,0 of 9
T28N I51P D106P,n.d. / n.d. / n.d.,1 of 9 (4.79)
R56T V64R K65H,3.19 / 2.85 / 3.24,2 of 9 (4.31)
T28N I51K G55V,n.d. / n.d. / n.d.,0 of 9
Y32A R100F F105L,n.d. / n.d. / 5.61,2 of 9 (3.93)
N30V G61V S107I,2.83 / 2.54 / 2.66,2 of 9 (4.29)
L29W G55S D106V,3.29 / 4.17 / 6.20,2 of 9 (4.09)
S53G G55M G61R,n.d. / n.d. / n.d.,0 of 9
G26W I51H G99M,n.d. / n.d. / n.d.,0 of 9
S31N Y60L A102P,n.d. / 2.87 / n.d.,1 of 9 (3.35)
S63T T104L,2.09 / 2.11 / 2.45,0 of 9
R57H K65D R100P,3.52 / n.d. / n.d.,2 of 9 (4.15)
S35Y Y60S G61H,n.d. / n.d. / n.d.,0 of 9
G33N A102I,n.d. / 4.30 / n.d.,4 of 9 (4.22)
G26H T28Y G55Y,n.d. / n.d. / 2.30,1 of 9 (3.88)
G55T T104N D106F,n.d. / n.d. / n.d.,0 of 9
G26I G55F D106M,4.33 / n.d. / 4.27,0 of 9
G26V Y60L G103K,n.d. / n.d. / n.d.,0 of 9
G99I D106R S107C,1.44 / 1.42 / 1.11,2 of 9 (3.17)
Y52C R57T,n.d. / 3.55 / n.d.,1 of 9 (2.70)
L29Q A101N F105R,5.40 / n.d. / n.d.,3 of 9 (3.95)
T28I S31M T104R,4.69 / n.d. / 5.41,3 of 9 (3.80)
L29S S63I A101H,3.90 / n.d. / 3.48,1 of 9 (3.27)
I34D T104R D106H,n.d. / n.d. / n.d.,0 of 9
G26W S35Y Y52Q,n.d. / n.d. / n.d.,1 of 9 (4.29)
F59R Y60E R100K,n.d. / n.d. / n.d.,0 of 9
Y52K A101R F105T,n.d. / n.d. / n.d.,0 of 9
F27Q N30P T104Y,n.d. / n.d. / n.d.,3 of 9 (4.46)
Y52V F59D S107P,4.39 / n.d. / n.d.,1 of 9 (3.58)
L29G R57L F105V,n.d. / n.d. / n.d.,1 of 9 (4.39)

Extract of 5 entries:

changes,"replicates, log10 nM",control signals
G33N A102I,n.d. / 4.30 / n.d.,4 of 9 (4.22)
I51E D62E V64F,n.d. / n.d. / n.d.,0 of 9
I34Q S35N V50N,n.d. / 3.01 / 5.17,0 of 9
F27Q N30P T104Y,n.d. / n.d. / n.d.,3 of 9 (4.46)
N30V G61V S107I,2.83 / 2.54 / 2.66,2 of 9 (4.29)

Three control strains display no target. For library AAYL49, 15% of the pairings with them gave a signal, with a median of 4.06 and one signal in twenty below 2.83, so weak values seen in few replicates may be background. Also given: how often the same scFv was detected with the empty control strains, with their mean in brackets.